According to PubChem BioAssay AID1259310 (The Scripps Research Institute Molecular Screening Center, 2017):
Only a part is listed here, and it is no random draw. Active and inactive are the calls of the source. No stated cut-off is given here; in the data, active means normalized activity above about 1.9%; inactive means the rest.

Sequences of proteins named here, by UniProt entry; tags and fusion partners are left off.
UniProt Q969H0, whole entry, looked up: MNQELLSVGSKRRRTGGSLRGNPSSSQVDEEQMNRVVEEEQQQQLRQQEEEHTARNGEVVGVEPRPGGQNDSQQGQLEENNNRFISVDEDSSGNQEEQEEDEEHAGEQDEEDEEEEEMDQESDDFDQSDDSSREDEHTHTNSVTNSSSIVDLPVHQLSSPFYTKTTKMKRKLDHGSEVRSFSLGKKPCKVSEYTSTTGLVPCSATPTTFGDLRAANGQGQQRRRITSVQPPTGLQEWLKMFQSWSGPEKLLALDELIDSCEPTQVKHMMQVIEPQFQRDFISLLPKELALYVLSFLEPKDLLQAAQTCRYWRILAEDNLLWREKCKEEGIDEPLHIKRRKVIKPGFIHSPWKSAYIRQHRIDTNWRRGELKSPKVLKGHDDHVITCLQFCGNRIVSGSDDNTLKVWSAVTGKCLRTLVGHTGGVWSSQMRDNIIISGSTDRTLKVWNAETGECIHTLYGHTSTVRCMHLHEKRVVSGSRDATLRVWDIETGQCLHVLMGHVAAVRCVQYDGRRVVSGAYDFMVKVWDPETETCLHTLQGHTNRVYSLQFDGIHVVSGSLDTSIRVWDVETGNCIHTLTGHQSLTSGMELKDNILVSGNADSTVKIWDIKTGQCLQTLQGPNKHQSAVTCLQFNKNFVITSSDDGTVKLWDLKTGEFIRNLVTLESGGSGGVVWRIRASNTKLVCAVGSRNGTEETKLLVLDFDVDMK

The compounds below were run against F-box/WD repeat-containing protein 7 (Homo sapiens) (UniProt Q969H0) (assay: FBW7 E3 ligase activators, primary screen, biochemical, AlphaScreen, human (AID 1259310;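 further: purified mutant Fbw7 with reduced substrate affinity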)). Conditions: AlphaScreen FBW7–phospho-cyclin E peptide binding, activator screen; at 26.1 µM; active compounds read high.

Row | SMILES | normalized activity (activation)
1 | CCOP1(=O)N=C(c2ccc(Br)cc2)NC(=O)N1 (stereo not drawn) | inactive: 0.04%
2 | Cc1cc(NC(=O)NP(=O)(O)O)n(-c2ccccc2)n1 | inactive: 0.18%
3 | CCOC(=O)NC(Sc1cc(C)ncn1)C(Cl)(Cl)Cl (stereo not drawn) | inactive: 0.07%
4 | O=[N+]([O-])c1ccc(Nc2ccc([N+](=O)[O-])cc2[N+](=O)[O-])c(O)c1 | inactive: -0.3%
5 | CN(C(=O)Cc1ccccc1)[C@@H]1CC[C@]2(CCCO2)C[C@H]1N1CCCC1 | inactive: 0.07%
6 | Cc1ccnc(NP2(=O)C=C(c3ccccc3)OC(c3ccccc3)=C2)c1 | inactive: 0.11%
7 | CC1(C)Nc2ccccc2OP1(=O)c1ccccc1 (stereo not drawn) | inactive: -0.1%
8 | O=[N+]([O-])c1cccc(P(=O)(Nc2ccccn2)c2cccc([N+](=O)[O-])c2)c1 | inactive: 0.02%
9 | O=C(Oc1ccc([N+](=O)[O-])cc1[N+](=O)[O-])c1cc([N+](=O)[O-])cc([N+](=O)[O-])c1 | inactive: 0.11%
10 | CC(=O)c1cccc(NC(=O)N(Cc2ccco2)C2CCN(CCc3ccccn3)CC2)c1 | inactive: 0.15%
11 | NC(=O)c1nsnc1NCCCl | inactive: 0.17%
12 | O=[N+]([O-])c1ccc(N/N=C/c2ccc(Cl)c([N+](=O)[O-])c2)c([N+](=O)[O-])c1 | inactive: 0%
13 | Cc1ccc(NC2=NCC(CBr)S2)cc1 (stereo not drawn) | inactive: -0.16%
14 | O=C(COC(=O)C(O)(c1ccccc1)c1ccccc1)NC(=O)NCc1ccccc1 | inactive: -0.03%
15 | NC(=O)Nc1ccc([As](=O)(O)O)cc1 | inactive: 0.06%
16 | Cc1ncc(-c2ccccc2)c2ccccc12 | inactive: -0.01%
17 | Cn1cnc([N+](=O)[O-])c1SCCCl | inactive: -0.07%
18 | CCOc1ccc2nc(NCCCl)[nH]c2c1 | inactive: -0.39%
19 | CC(=O)NC(SC1=NCCS1)C(Cl)(Cl)Cl (stereo not drawn) | inactive: 0.19%
20 | O=P(Nc1ccccn1)(c1ccccc1)c1ccccc1 | inactive: 0.05%
21 | O=P(Nc1nccs1)(c1ccccc1)c1nc2ccccc2s1 (stereo not drawn) | inactive: 0.23%
22 | O=P(Nc1nccs1)(Oc1ccccc1)Oc1ccccc1 | inactive: 0%
23 | NC(=O)COC(=O)C1(O)c2ccccc2-c2ccccc21 | inactive: -0.14%
24 | CCOP1(=O)Oc2ccccc2OC1c1ccccc1 (stereo not drawn) | inactive: 0.02%

Row | SMILES | normalized activity (activation)
25 | Cc1c(N=Cc2ccc([N+](=O)[O-])cc2)cc([N+](=O)[O-])cc1[N+](=O)[O-] | inactive: 0.14%
26 | O=C(Nc1cccc(F)c1)N(Cc1cccnc1)C1CCN(CCc2ccccn2)CC1 | inactive: 0.51%
27 | CC1(C)COP(=S)(N(C2=NCCC2)c2ccccc2)OC1 | inactive: 0.14%
28 | CC(C)OP(=O)(Nc1ccc(Br)cc1)OC(C)C | inactive: 0.23%
29 | CCCCOP(=O)(Nc1cccc(F)c1)OCCCC | inactive: -0.11%
30 | COc1cc([N+](=O)[O-])cc([N+](=O)[O-])c1OCC(=O)N/N=C/c1ccc([N+](=O)[O-])o1 | inactive: -0.04%
31 | O=[N+]([O-])c1ccc(NCCN(CCO)c2ccc([N+](=O)[O-])cc2[N+](=O)[O-])c(Cl)c1 | inactive: -0.3%
32 | O=[N+]([O-])c1ccc(N/N=C/c2ccc([N+](=O)[O-])s2)c([N+](=O)[O-])c1 | inactive: 0.11%
33 | CC(=Nc1cc([N+](=O)[O-])ccc1C)NNc1ccc([N+](=O)[O-])cc1[N+](=O)[O-] | inactive: -0.01%
34 | COP(=O)(OC)Oc1c(Cl)c(Cl)c(O)c(Cl)c1Cl | inactive: 0.11%
35 | CCSP(=O)(c1ccccc1)c1ccccc1 | inactive: 0.03%
36 | O=C(Cc1ccc(F)cc1)N(Cc1ccco1)C1CCN(CCc2ccccn2)CC1 | inactive: 0.1%
37 | COCCN(CCOC)C(=O)COC(=O)C(O)(c1ccccc1)c1ccccc1 | inactive: 0.36%
38 | CN(C)C1(CNC(=O)c2ccc(S(C)(=O)=O)cc2)CCCCC1 | inactive: -0.08%
39 | O=C(O)C(Cl)CSc1nc2ccccc2o1 (stereo not drawn) | inactive: -0.26%
40 | O=C(/C=C/c1ccccc1)OC1CN2CCC1CC2 (stereo not drawn) | inactive: 0.02%
41 | COc1ccccc1NC1=NCC(CBr)S1 (stereo not drawn) | inactive: -0.65%
42 | CC(C)NC(=O)N(Cc1cccnc1)C1CCN(CCc2ccccn2)CC1 | inactive: 0.68%
43 | Cc1nn(-c2ccccc2)c2c1P(=O)(N1CCOCC1)N(C)C(c1ccccc1)=N2 (stereo not drawn) | inactive: 0.07%
44 | N#Cc1cccc(C(=O)N(Cc2ccco2)C2CCN(CCc3ccccn3)CC2)c1 | inactive: -0.06%
45 | Cc1n[n+]2c([nH]c1=O)SCC(Br)C2c1ccccc1 (stereo not drawn) | inactive: 0.01%
46 | O=[N+]([O-])c1ccc2c(c1)/C(=N\O)c1cc([N+](=O)[O-])cc([N+](=O)[O-])c1-2 | inactive: 0.03%
47 | O=C(Nc1ccc(Br)cc1[N+](=O)[O-])c1cc([N+](=O)[O-])cc([N+](=O)[O-])c1 | inactive: -0.15%
48 | CCCCC(NC(=O)OC(C)(C)C)C(=O)O (stereo not drawn) | inactive: -0.13%

Row | SMILES | normalized activity (activation)
49 | COC(=O)c1cc([N+](=O)[O-])c(Nc2ccc([N+](=O)[O-])cc2Br)c([N+](=O)[O-])c1 | inactive: -0.12%
50 | Cc1ccc(S(=O)(=O)NCCCCC(NC(=O)OC(C)(C)C)C(=O)O)cc1 (stereo not drawn) | inactive: 0.53%
51 | COC(=O)c1nsnc1NCCCl | inactive: 0.34%
52 | CC1(CBr)Cn2c(nc3ccccc3c2=O)S1 (stereo not drawn) | inactive: 0.1%
53 | CC(Cl)(CSSCC(C)(Cl)C(=O)O)C(=O)O (stereo not drawn) | inactive: -0.32%
54 | COc1cc([N+](=O)[O-])cc([N+](=O)[O-])c1N/N=C(/C)c1cccc([N+](=O)[O-])c1 | inactive: 0.73%
55 | O=C(c1ccco1)N(Cc1cccnc1)C1CCN(CCc2ccc(Cl)cc2)CC1 | inactive: -0.13%
56 | CCc1cccc(NC(=O)Oc2c([N+](=O)[O-])cc([N+](=O)[O-])cc2[N+](=O)[O-])c1 | inactive: -0.06%
57 | CC(C)(C)C(=O)NC(Sc1ncccn1)C(Cl)(Cl)Cl (stereo not drawn) | inactive: -0.04%
58 | CCOc1ccc(NP2(=O)C=C(Cl)N(C)C(=O)N2C)cc1 (stereo not drawn) | inactive: 0%
59 | n1[nH]nc2c1c1n[nH]nc1c1n[nH]nc21 | inactive: -0.98%
60 | COc1cccc(OP(=O)(Nc2ccccn2)Oc2cccc(OC)c2)c1 | inactive: -0.04%
61 | CCOP(=O)(NC(=NC(C)c1ccccc1)NC(C)c1ccccc1)OCC (stereo not drawn) | inactive: 0.13%
62 | CCOc1ccc(NC(=O)c2ccc([N+](=O)[O-])cc2[N+](=O)[O-])c([N+](=O)[O-])c1 | inactive: -0.12%
63 | COc1ccc2nc(SCc3ccc(C(=O)O)cc3)[nH]c2c1 | inactive: 0.48%
64 | O=[N+]([O-])c1cc([N+](=O)[O-])c(N2CCCCC2)c([N+](=O)[O-])c1 | inactive: -1.53%
65 | O=P1(Nc2ccccn2)COc2ccccc2OC1 | inactive: -0.04%
66 | CN(CCCl)Cc1cc(Cl)c(NC2=NCCN2)c(Cl)c1 | inactive: 0.03%
67 | CCOP(=O)(CN)OCC | inactive: 0.8%
68 | O=C(Cc1ccc(F)cc1)N(Cc1cccnc1)C1CCN(CCc2ccccn2)CC1 | inactive: 0.13%
69 | Nc1c([N+](=O)[O-])cc([N+](=O)[O-])c(Nc2ccc(S(N)(=O)=O)cc2)c1[N+](=O)[O-] | inactive: -0.28%
70 | CCN(CC)C(=O)NP(=O)(Oc1ccccc1)Oc1ccccc1 | inactive: -0.01%
71 | Cc1cc(NP(=O)(Oc2ccccc2)Oc2ccccc2)no1 | inactive: -0.07%
72 | COc1ccc(NC(=O)c2cc([N+](=O)[O-])cc([N+](=O)[O-])c2)c([N+](=O)[O-])c1 | inactive: -0.08%

Row | SMILES | normalized activity (activation)
73 | O=C(Nc1ccncc1[N+](=O)[O-])c1ccc([N+](=O)[O-])cc1[N+](=O)[O-] | inactive: -0.11%
74 | COc1ccc(CCN2CCC(N(Cc3cccnc3)C(=O)NC(C)C)CC2)cc1 | inactive: 0.3%
75 | COc1cc(NC(=O)COC(=O)C(O)(c2ccccc2)c2ccccc2)cc(OC)c1 | inactive: 0.08%
76 | Cc1cc(NP(=O)(/C=C(\Cl)c2ccccc2)/C=C(\Cl)c2ccccc2)n[nH]1 | inactive: -0.09%
77 | O=C(COC(=O)c1ccc([N+](=O)[O-])cc1[N+](=O)[O-])c1ccc([N+](=O)[O-])cc1 | inactive: -0.21%
78 | Cc1sc2nc3n(c(=O)c2c1C)CC(CI)S3 (stereo not drawn) | inactive: 0.02%
79 | O=C(CF)NC(Sc1ccccc1)C(Cl)(Cl)Cl (stereo not drawn) | inactive: 0.26%
80 | Cc1cc(SC(NC=O)C(Cl)(Cl)Cl)ncn1 (stereo not drawn) | inactive: 0.33%
81 | CCN1C(=O)N(c2ccccc2)P(=S)(OC)c2cc3c(cc21)OCCO3 (stereo not drawn) | inactive: 0.01%
82 | CC(C)COP(=O)(Nc1ccc(Br)cc1)OCC(C)C | inactive: -0.11%
83 | CCCCOP(=S)(CC(=O)N(CC)CC)OCCCC | inactive: -0.12%
84 | CC(C)OP(=O)(OC(C)C)C(=O)c1ccccc1Cl | inactive: -0.11%
85 | O=[N+]([O-])c1cccc(Nc2ccc([N+](=O)[O-])cc2[N+](=O)[O-])c1 | inactive: 0.35%
86 | CC(C)(C)C(=O)CSc1nc2ccccc2[nH]1 | inactive: -0.03%
87 | O=[N+]([O-])c1ccc(-c2nnc(SCCCl)o2)cc1 | inactive: 0.24%
88 | CC(C)OP(=O)(Nc1nc2ccccc2[nH]1)OC(C)C | inactive: -0.16%
89 | O=C(Cc1ccc(F)cc1)N(Cc1ccco1)C1CCN(CCc2cccs2)CC1 | inactive: -0.2%
90 | COP1(=S)N=C2c3ccccc3CN2c2cc(N(C)C)ccc21 (stereo not drawn) | inactive: 0.22%
91 | CCN(CCCl)c1ccc(C=C(C#N)C#N)c(C)c1 | inactive: -0.17%
92 | CC(C)NC(=O)NP(=O)(Oc1ccccc1)Oc1ccccc1 | inactive: -0.04%
93 | CN(C)CCCN(C)Cc1cc2ccccc2o1 | inactive: -0.1%
